This note sets out measurements from ChEMBL document CHEMBL4330080, “Hydroxyazole scaffold-based Plasmodium falciparum dihydroorotate dehydrogenase inhibitors: Synthesis, biological evaluation and X-ray structural studies” (Eur J Med Chem, 2019).

The test addresses T1, Dihydroorotate dehydrogenase (Plasmodium falciparum, UniProt Q54A96).
T1 sequence (Q54A96 whole entry): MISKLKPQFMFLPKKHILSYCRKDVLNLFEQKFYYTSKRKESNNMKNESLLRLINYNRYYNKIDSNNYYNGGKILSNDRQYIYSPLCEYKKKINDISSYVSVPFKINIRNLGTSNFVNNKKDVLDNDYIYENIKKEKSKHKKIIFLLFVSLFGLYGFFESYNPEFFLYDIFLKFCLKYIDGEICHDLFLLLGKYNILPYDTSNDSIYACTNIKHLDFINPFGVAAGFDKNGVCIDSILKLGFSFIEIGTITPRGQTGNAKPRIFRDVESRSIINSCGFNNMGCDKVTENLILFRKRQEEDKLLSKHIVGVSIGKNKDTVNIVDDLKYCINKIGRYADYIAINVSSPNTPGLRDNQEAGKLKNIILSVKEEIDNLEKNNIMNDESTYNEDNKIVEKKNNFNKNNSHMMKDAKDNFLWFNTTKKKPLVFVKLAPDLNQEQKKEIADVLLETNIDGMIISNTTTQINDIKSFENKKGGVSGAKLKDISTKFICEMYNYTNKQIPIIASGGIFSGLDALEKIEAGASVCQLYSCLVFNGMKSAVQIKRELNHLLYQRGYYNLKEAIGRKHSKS
The test can be described thus: Inhibition of Plasmodium falciparum recombinant N-terminal His6-tagged DHODH (159-569 residues) expressed in Escherichia coli BL21(DE3) using DHO as substrate measured every min for 5 mins by DCPI dye-based photometric analysis. Put shortly:
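N-terminally truncated recombinant enzyme, His-tag IMAC then size exclusion purified, in 50 mM Tris/HCl pH 7.8, 150 mM KCl, 0.1% Triton X-100 with 60 μM DCIP and 20 μM decylubiquinone. Compounds added at 1% final DMSO, or 5% for weak binders. Started with 200 μM DHO; initial rate from DCIP absorbance at 600 nm over the first 5 min. IC50 is mean ± SE of three experiments.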

One may read the IC50 as the concentration at which inhibition is half-maximal. Take `Cc1cc(Nc2ccc3ccccc3c2)n2ncnc2n1`: the IC50 worked out at 65 nM.
